# Assay results from US20250340565A1, “CD73 INHIBITOR COMPOUNDS” (AdoRx Therapeutics Limited, priority 2022, published 2025).
# The chains behind the UniProt entries cited, without tags or fusion partners. Residues count along the entry.
# UniProt P21589, 27-574 limits assumed: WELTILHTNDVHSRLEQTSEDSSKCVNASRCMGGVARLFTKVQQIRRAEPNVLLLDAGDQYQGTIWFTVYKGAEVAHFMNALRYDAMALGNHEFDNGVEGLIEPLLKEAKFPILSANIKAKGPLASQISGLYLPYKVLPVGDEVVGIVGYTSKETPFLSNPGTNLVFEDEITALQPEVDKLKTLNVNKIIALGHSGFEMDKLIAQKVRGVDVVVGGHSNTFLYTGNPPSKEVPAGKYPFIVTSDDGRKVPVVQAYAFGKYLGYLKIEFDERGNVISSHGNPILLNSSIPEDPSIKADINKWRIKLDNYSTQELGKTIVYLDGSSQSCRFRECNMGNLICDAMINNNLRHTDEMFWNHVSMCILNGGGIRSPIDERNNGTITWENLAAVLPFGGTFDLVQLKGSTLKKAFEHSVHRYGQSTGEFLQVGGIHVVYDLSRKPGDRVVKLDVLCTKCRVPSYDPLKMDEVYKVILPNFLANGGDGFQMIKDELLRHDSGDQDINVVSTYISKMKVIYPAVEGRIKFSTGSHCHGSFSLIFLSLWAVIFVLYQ
# UniProt P21589, 27-549 limits assumed: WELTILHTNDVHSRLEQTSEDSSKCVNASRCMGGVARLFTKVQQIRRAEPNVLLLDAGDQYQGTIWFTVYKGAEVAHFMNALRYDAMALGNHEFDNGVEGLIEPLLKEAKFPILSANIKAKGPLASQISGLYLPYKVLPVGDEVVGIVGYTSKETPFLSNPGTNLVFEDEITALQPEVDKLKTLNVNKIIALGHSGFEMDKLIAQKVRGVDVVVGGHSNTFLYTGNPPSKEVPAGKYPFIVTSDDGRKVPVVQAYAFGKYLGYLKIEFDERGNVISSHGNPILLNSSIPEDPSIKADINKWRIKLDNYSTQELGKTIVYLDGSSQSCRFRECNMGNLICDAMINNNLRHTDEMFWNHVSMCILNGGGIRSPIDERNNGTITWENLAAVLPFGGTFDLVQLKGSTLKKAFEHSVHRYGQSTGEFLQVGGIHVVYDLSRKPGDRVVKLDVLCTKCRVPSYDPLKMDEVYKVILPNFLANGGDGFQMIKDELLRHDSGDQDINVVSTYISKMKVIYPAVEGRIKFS
# Key:
# [1] = target: human (h)CD73 (amino acids Trp27-Lys547) (Homo sapiens, UniProt P21589); experiment: CD73 inhibition assay (Malachite Green phosphate detection); settings: 250 pM hCD73, 12.5 μM AMP, 20 min pre-incubation, absorbance 620 nm
# Method: Compound inhibition of human (h)CD73 (amino acids Trp27-Lys547, R&D Systems 5795-EN-500) enzymatic activity was tested via the Malachite Green Phosphate Detection Kit (R&D DY996). Experiments were performed in 20 μL Tris buffer (25 mM Tris pH 7.5, 5 mM MgCl2, 0.002% Tween20), with 250 pM of hCD73. Test compounds of interest were prepared in a threefold serial dilution in DMSO and added to the assay to give the appropriate final concentration, with the assay DMSO concentration being 1%. Compounds were pre-incubated for 20 minutes with hCD73 in a 384 well clear plate (Greiner 781101), followed by the addition of adenosine monophosphate (AMP) to 12.5 μM. The enzymatic reaction was carried out for 20 min at room temperature. 5 μL of Malachite kit reagent A was added to stop the reaction (contains 3M H2SO4) and after 10 min, 5 μL of Malachite kit reagent B was added (Malachite Green). After 30 min, absorbance at 620 nm was read on a BMG Pherastar FSX.
# Data were normalised to measurements in the absence of competing compound (0% inhibition) and in the presence of 10 μM control compound (100% inhibition). Competition curves were then fit to a 4-parameter logistic equation including a variable slope factor to determine the IC50 (compound concentration that inhibits 50% of 0073 activity).
# [2] = target: CD73 activity in U138-MG cells (Homo sapiens (Human), UniProt P21589); experiment: U138-MG inhibition assay (inorganic phosphate from AMP, PiColorLock Gold); settings: 100 μM AMP, 30 min pre-incubation, 1 hour at 37° C.
# Method: U138-MG cells from ATCC are cultured in DMEM (Gibco 31966) with 10% FBS. Cells are seeded into 96-well culture plates (5,000 cell/well) in 100 μL of media for 24 hr. Cells are washed twice with 200 μL of assay buffer (20 mM HEPES, pH 7.4; 137 mM NaCl; 5.4 mM KCl; 1.3 mM CaCl2; 4.2 mM NaHCO3; 1 mg/mL glucose) to remove residual inorganic phosphate. CD73 inhibitor is added to each well in 100 μl volume and preincubated for 30 mins at 37° C. An equal volume of AMP substrate (Sigma A1572) is added to each well at a final concentration of 100 μM and incubated at 37° C. for 1 hour. Control wells containing cells but lacking added AMP, define the assay signal equivalent to 100% inhibition of CD73 activity. Supernatant is removed for measurement of inorganic phosphate using the PiColorLock Gold kit (Abcam, ab 270004).
# The IC50 values of test compounds are determined as the inflection point of the sigmoidal concentration response curve.
# CD73 in whole blood = CD73 in whole blood (Homo sapiens (Human), UniProt P21589); experiment: Whole blood AMP Glo assay; settings: whole blood of healthy volunteers, 10 μM AMP, 30 min pre-incubation, 15 min at 37° C., levamisole 1.5 mM
# Method: Blood is drawn from healthy volunteers by venepuncture and anti-coagulated with Lithium Heparin (10 IU/mi). 150 μl of blood is added to U-bottom polypropylene 96-well assay plates pre-filled with 20 μl of compound dilutions prepared in RPMI also containing the Tissue Non-specific Alkaline Phosphatase inhibitor Levamisole (final assay concentration 1.5 mM). Control wells to define uninhibited CD73 contain DMSO in place of compound. Control wells to define complete stabilization of AMP attributable to CD73 contain LY3475070 (CAS: 2375815-63-5) at 30 μM final assay concentration.
# Compounds are pre-incubated with whole blood at 37° C. for 30 minutes. Following this, AMP is added in a 30 μl volume for a final assay concentration of 10 μM, mixed, and the plates are incubated for 15 minutes at 37° C. Final DMSO concentration/well is 0.6% and final volume/well is 200 μL. After incubating with AMP, the plates are placed on ice and then centrifuged at 2000 g for 10 minutes at 4° C. […]
# The stabilized AMP concentration in diluted plasma is measured using AMP-Glo kit (Promega), in parallel with a standard curve of known AMP concentrations, with a final volume of 40 μl in white flat bottom half-well 96-well plates (Corning). Signal is measured by Luminescence. The IC50 values of test compounds are determined as the inflection point of the sigmoidal concentration response curve.
structure (smiles),measurement,setting,value
CC1(C)CN(c2ncc(Cl)c3nn(-c4c[nH]c(=O)[nH]c4=O)cc23)CC1(F)F,pIC50,[1],7.53
same,pIC50,[2],8.40
same,pIC50,CD73 in whole blood,7.89

# pIC50: −log10 of the molar value.
